Laboratory results as given in paper PMC7203973 (ACS Omega, 2020).

Experiment: RBC partitioning
Assay type: in vitro ADME
Conditions: rat blood, 1000 nM, 0 min

With CC(C)NC[C@H](O)COc1cccc2ccccc12 (racemic) [propanolol] as the compound, how does the “blood-to-plasma ratio (KRBC/Plasma)” value read?
The value was 1.07 ± 0.05.
